Here are results for one compound from patent US7271162B2, “Cycloocta[b][1,4]diazepino[6,7,1-hi]indoles and derivatives” (Wyeth, priority 2000, dated 2007).

The chains behind the UniProt entries cited, without tags or fusion partners. Residues count along the entry.
UniProt P28335, 33-458: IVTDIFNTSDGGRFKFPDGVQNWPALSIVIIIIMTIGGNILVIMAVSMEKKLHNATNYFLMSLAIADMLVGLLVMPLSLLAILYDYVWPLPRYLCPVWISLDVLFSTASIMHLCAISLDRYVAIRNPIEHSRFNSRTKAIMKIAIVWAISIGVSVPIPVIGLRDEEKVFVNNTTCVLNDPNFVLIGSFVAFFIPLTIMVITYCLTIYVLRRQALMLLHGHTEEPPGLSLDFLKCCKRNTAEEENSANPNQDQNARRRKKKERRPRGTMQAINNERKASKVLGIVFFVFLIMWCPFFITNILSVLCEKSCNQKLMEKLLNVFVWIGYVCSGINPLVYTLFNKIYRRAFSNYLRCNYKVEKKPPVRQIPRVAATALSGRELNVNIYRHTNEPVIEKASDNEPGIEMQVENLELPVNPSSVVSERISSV

Usually pKi stands for the Ki on a negative log10 scale, so that one unit is a factor of ten. The pEC50 is the EC50 on a negative log10 scale, so that one unit is a factor of ten. Higher therefore signals a low EC50.

pEC50, pKi: −log10 of the molar value.

Assay [1] has as its target T1, human 5-hydroxytryptamine2C (h5HT2C) receptor (Homo sapiens, UniProt P28335).
T1 construct: expressed in transfected cells; host or cells: CHO (Chinese Hamster Ovary) cells; membrane preparation
The experiment in a line: 5HT2C Receptor Binding Test Procedure ([125I] DOI displacement, membranes of transfected CHO cells). The settings on record: reference compounds, [125I] DOI binding, read-out: Ki value and 95% confidence interval.

For the next assay, the target named is human 5-HT2C receptor (Homo sapiens, UniProt P28335). Description: Stimulation of [3H] Inositol Monophosphate Production by 5HT2C Agonists in transfected CHO cells. The note with it: reference compounds.

For the compound `Clc1cccc(N2CCNCC2)c1` [mCPP, meta-chlorophenylpiperazine], the negative logarithm of the Ki (pKi) in assay [1] was 8.19. The same compound gave a pEC50 on human 5-HT2C receptor ([3H] IP1 production, CHO h5-HT2C cells) of 7.33. At human 5-HT2C receptor (relative to 5-HT), the “EMAX (relative to 5-HT)” value turned out to be 60%.
